Tested on: alpha-synuclein over-expressing (mutants) mice (Thy1-aSyn)
Conditions: α-syn mutants receiving rasagiline; individual mice
Source text: Transgenic mice overexpressing alpha-synuclein under the Thy1 promoter (Thy1-aSyn) have high levels of alpha-synuclein expression throughout the brain but no loss of nigrostriatal dopamine neurons up to 8 months. […] Overexpression of alpha-synuclein is sufficient to cause olfactory deficits in mice similar to that observed in patients with PD (2).
The time periods that mice spent sniffing lemon and lime were compared. The testing parameters were percentage of time of sniffing lemon out of total time of sniffing and percentage of time of sniffing lime out of total time of sniffing.

C#CCN[C@@H]1CCc2ccccc21 [Rasagiline, R(+)-N-propargyl-1-aminoindan]
% Time sniffing Lemon: 48.5%
